Data taken from PMC6781469 (Journal of Enzyme Inhibition and Medicinal Chemistry, 2019).

Sequences of proteins named here, by UniProt entry; tags and fusion partners are left off. Residues count along the entry.
UniProt P36888, 27-993 limits assumed: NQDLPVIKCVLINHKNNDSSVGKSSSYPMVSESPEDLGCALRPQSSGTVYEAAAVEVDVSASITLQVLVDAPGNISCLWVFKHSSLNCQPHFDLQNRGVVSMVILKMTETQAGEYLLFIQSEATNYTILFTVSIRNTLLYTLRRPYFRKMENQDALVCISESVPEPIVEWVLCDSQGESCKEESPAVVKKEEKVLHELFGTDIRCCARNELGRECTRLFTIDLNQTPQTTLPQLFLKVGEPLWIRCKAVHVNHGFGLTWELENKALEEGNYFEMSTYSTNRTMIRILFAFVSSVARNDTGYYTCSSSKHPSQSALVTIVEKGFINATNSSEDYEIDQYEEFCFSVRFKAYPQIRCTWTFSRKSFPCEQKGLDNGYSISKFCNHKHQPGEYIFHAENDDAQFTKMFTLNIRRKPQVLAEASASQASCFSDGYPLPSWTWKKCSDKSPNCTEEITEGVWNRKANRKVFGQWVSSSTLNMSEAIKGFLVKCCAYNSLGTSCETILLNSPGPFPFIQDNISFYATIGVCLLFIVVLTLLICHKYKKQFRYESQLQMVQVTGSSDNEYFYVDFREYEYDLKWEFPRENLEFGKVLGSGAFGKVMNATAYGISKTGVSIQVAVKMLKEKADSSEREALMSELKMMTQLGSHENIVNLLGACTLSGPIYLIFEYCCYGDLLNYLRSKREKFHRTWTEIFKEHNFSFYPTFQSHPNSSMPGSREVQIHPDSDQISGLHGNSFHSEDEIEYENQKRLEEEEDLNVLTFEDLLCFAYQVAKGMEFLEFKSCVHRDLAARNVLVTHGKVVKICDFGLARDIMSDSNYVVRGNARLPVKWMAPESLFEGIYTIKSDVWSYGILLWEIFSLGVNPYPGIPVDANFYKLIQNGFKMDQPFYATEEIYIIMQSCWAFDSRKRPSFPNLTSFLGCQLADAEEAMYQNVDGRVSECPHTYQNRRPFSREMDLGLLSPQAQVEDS

Target: FLT3(h) (Homo sapiens, UniProt P36888)
Test: Reaction Biology Kinase HotSpot radiometric kinase assay, FLT3
Settings: enzymatic activity, Table 1; NA not defined

## Cc1oncc1C(=O)Nc1ccc2[nH]c(-c3cnn(-c4ccccc4)c3C(F)(F)F)nc2c1
  IC50 (µM) FLT3: lost activity
